Measured values from US20200277376A1.

Sequences of proteins named here, by UniProt entry; tags and fusion partners are left off. Residues count along the entry.
UniProt Q15116, 25-170: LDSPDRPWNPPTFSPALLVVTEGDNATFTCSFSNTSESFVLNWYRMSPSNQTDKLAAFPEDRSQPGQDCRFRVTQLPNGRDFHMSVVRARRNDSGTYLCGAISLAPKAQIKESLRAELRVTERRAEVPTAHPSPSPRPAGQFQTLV

Assays:
[1] = biological target: recombination human PD-1 extracellular protein (Sino Biological Inc.) (human) (UniProt Q15116); test: competitive ELISA, plate coated with human PD-1 protein; competitor biotin-hAb21
[2] = biological target: recombination human PD-1 extracellular protein (Sino Biological Inc.) (human) (UniProt Q15116); test: competitive ELISA, plate coated with human PD-1 protein; competitor biotin-Nivolumab

## MK3475 (Pembrolizumab) (antibody)
[1]
  antagonizing/inhibiting ratio: 50%
[2]
  inhibiting efficiency: 70%
